This note sets out measurements from US20220402961A1, “NICOTINAMIDE MONONUCLEOTIDE-ISONICOTINE COCRYSTAL AND COMPOSITION THEREOF” (BONTAC BIO-ENGINEERING(SHENZHEN) CO.,LTD, priority 2021, published 2022).

For data set [1] the following is noted: screened with a sieve (1.00 mm, No. 18), poured into glass graduated measuring cylinder, apparent volume. The protocol: The tops were scraped flat. The apparent volumes were recorded. The bulk densities were calculated.
For data set [2] the following is noted: crystal screened with 200-mesh sieve, filled into capsules; average of absolute content difference values of each capsule vs average content.

For “nicotinamide mononucleotide dimethyl sulfoxide solvate crystal (form 2)”, in data set [1], the Bulk density was 0.22 g/mL.

With “nicotinamide mononucleotide-isonicotine cocrystal [Cocrystal in example 1]”, in data set [1], the Bulk density came to 0.68 g/mL. This substance displayed an Average content difference in data set [2] of 5.5%.
